This is a selection; strong and weak results do not stand in their true shares. Some tests of the compounds listed are not included; inactive here does not mean inactive elsewhere. Activity calls are given as the source filed them.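 How the source made its calls: active means fluorescence ratio above 2.44, which is 1 plus 3 SD of all ratios; inconclusive means signal too bright to measure linearly, ratio around 10 or more; inactive means fluorescence ratio below 2.44.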

A short description of this test: intrinsic compound fluorescence with Jurkat cells – cell-based, flow cytometry, artefact control for VLA-4 allosteric ligand project, primary screen (AID 576).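 Further: green fluorescence of cells measured with 488 nm excitation and 530 nm emission; tested at 10 µM compound in the well.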 To be noted: compound autofluorescence, active compounds read high, 1 = vehicle-only cell background. On the technique in general: In flow cytometry, cells or beads pass a laser one at a time.
`O=C(OC1CN2CCC1CC2)C(CO)(c1ccccc1)c1ccccc1` (stereo unspecified): the fluorescence ratio was inactive: 0.96.

The values above are taken from PubChem BioAssay AID576 (NMMLSC, 2007).
